The values below are quoted from earlier work in patent publication US10953042B2, “Vanadium insulin-mimetics, methods of preparation, and methods for treatment of diabetes” (The University of Trinidad and Tobago, priority 2017, dated 2021).

Each structure is given as a SMILES string.

This data set relates to phosphatase. To be noted: free state; cited from earlier work.

Regarding `O=C(O)c1cccc(C(=O)O)n1` [dipicolinic acid, Pyridine-2,6-dicarboxylic acid], the “phosphatase or insulin-like activity” value was “insignificant”.
